# Earlier results, collected in US10881675B2, “Gut health compositions” (priority 2017, dated 2021).
# Tested on: bifidobacterium
# Settings: in vivo
substance,measurement,value
xylooligosaccharides [XOS],intestinal side effects as compared to other prebiotics,significantly reduced
